# From patent publication US20130052281A1, “NOVEL COMPOUNDS” (Takeda Pharmaceutical Company Limited, priority 2011, published 2013)
# Protein sequences, listed by entry. Tags and fused reporters are not part of them. Lines headed by an entry give the natural chain unless they say otherwise; changes in a name come on top.
# UniProt P14920: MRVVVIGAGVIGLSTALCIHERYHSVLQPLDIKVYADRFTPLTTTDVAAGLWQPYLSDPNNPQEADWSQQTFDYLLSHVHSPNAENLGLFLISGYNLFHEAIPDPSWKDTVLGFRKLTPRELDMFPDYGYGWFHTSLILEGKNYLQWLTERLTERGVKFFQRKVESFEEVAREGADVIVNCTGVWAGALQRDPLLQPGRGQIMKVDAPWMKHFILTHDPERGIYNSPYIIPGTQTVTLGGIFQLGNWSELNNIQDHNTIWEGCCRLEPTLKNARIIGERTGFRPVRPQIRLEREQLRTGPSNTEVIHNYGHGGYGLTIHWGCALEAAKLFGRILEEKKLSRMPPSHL
# Target: Human DAAO enzyme (Homo sapiens, UniProt P14920)
# Experiment: In Vitro DAAO Enzyme Assay (Amplex Red detection of H2O2 from D-Serine)
# Type: biochemical
# Settings: inhibition of DAAO activity in the presence of 10 mM D-Serine; 60 minutes at 25° C.; ten point dose-response
# Method: The Km of D-Serine was measured for each enzyme batch to maintain consistency; this Km was used in subsequent assays.
# On the day of the assay compounds were serially diluted in DMSO before being diluted 1:20 with assay buffer (20 mM Tris ph 7.4). […] Finally 5 μl ‘Amplex’ red reagent (Invitrogen) was added to all wells as per manufacturer's protocol. The plate was incubated for 60 minutes in the dark at 25° C. and the fluorescence in each well was measured in the Envision plate reader.
# Concentration response curves were generated using the average of duplicate wells for each data point and analyzed using non-linear regression and four parameter curve fit.
smiles,measurement,value
"O=c1[nH]nc(CCc2ccc(C(F)(F)F)cn2)cc1O [Example 3, 4-Hydroxy-6-{2-[5-(trifluoromethyl)pyridin-2-yl]ethyl}pyridazin-3(2H)-one]",IC50,21 nM
